From patent publication US4822775A, “Phenyl substituted dipeptide amides” (priority 1986, dated 1989)

Target: opiate receptors isolated from rat brain
Conditions: 1 nM 3H-Naloxone, rat brain receptor membranes; standard screening dose 10^-5 molar (words such as Inactive refer to it); read-out: Opiate Binding, IC50
Description: Opiate Binding Assay. The test compounds were evaluated for their ability to displace the binding of ^3 H-Naloxone to opiate receptors isolated from rat brain. […] A purified homogenate of receptor membranes was prepared from the brains according to the method described by Chang and Cuatrecasas. (K.-J. Chang and P. Cuatrecasas. Multiple Opiate Receptors: Enkephalins And Morphine Bind To Receptors Of Different Specificity. J. Biol. Chem. 254, 2610-2618 (1979).) The brains were homogenized in 10 volumes of 0.32M sucrose and centrifuged twice at 6,000xg for 15 minutes. […] The supernatant was centrifuged at 40,000xg. […] The final pellet was resuspended in 2 volumes of 50 mM tris HCl (pH 7.4).
Levorphanol (1×10^-5 M) was used as the displacer for non-specific binding. […] Total assay volume was 1.0 ml.

For “2,6-dimethyl-L-tyrosyl-N-[2-(2-thienyl)ethyl]-D-alaninamide, monohydrochloride [Example 39]”, the IC50 was 1.2 nM.
In the case of “α-amino-4-hydroxy-2,6-dimethyl-N-[1R-methyl-2-oxo-2-(1,2,3,4-tetrahydro-1-quinolinyl)ethyl]benzenepropanamide, monohydrochloride [Example 30]”, the IC50 is reported as 61 nM.
